The subject of this assay is B16 cells transduced with AAV8-ISREx4-LucmiR122T. In words: Radiation and IFN signaling on activation of the ISREx4 promoter (luciferase). The class given is cell-based, murine. The procedure:
The ISREx4 promoter responds to interferon downstream signaling. The following experiment investigates whether exogenously added IFN-α, IFN-β or IFN-γ activates the promoter and whether this addition has a synergistic effect with radiation of cells treated with AAV8-ISREx4-LucmiR122T.
To this end, B16 cells received 8 Gy or 0 Gy as described above and then were transduced with AAV8-ISREx4-LucmiR122T (1×10^5 viral genomes/cell) and 48 h later 1,000 IU of either IFN-α, IFN-β or IFN-γ were added to the culture and luciferase activity was measured 48 h later as described above.

B1: IFN-β: exogenously added interferon, 1,000 IU (protein, UniProt P01574 22-187, looked up)
Interferon beta: MSYNLLGFLQRSSNFQCQKLLWQLNGRLEYCLKDRMNFDIPEEIKQLQQFQKEDAALTIYEMLQNIFAIFRQDSSSTGWNETIVENLLANVYHQINHLKTVLEEKLEKEDFTRGKLMSSLHLKRYYGRILHYLKAKEYSHCAWTIVRVEILRNFYFINRLTGYLRN
In the case of B1, the luciferase activity result (1,000 IU interferon alone (0 Gy)) is “significantly increased luciferase activity” and the luciferase activity result (1,000 IU interferon together with radiation (8 Gy)) is recorded as “induced luciferase activity dramatically”.
